Experimental data reported in EP2954896A1, “Small molecule inhibitors of the E3 Ligase Skp2 in depression and other diseases” (Max-Planck-Gesellschaft zur Förderung der Wissenschaften …, priority 2014, dated 2015).

Columns and labels:
[1] = Chronic PAR treatment after chronic social defeat stress: behavioral tests (open field, social avoidance, forced swim); format: in vivo, mice; conditions: CSDS-exposed and control animals
Description: After cessation of the stressor, groups were subdivided into vehicle-treated and paroxetine-treated animals, resulting in 8 groups (n = 7-13 per group). The treatment phase lasted for three weeks. The behavioral tests took place during the last week of the paroxetine treatment. The CSDS paradigm lasted for 21 days. Briefly, the experimental mice were introduced into the home cage (45 cm x 25 cm) of a dominant resident mouse and defeated shortly after. When the defeat was achieved, the animals were separated by a wire mesh, preventing physical but allowing sensory contact for 24 h. Each day, stressed animals were defeated by another unfamiliar, dominant resident mouse in order to exclude a repeated encounter throughout the experiment. The daily defeat was performed between 11:00 and 16:00 h; varying starting times reduced the predictability of the stressor and therefore minimized a potential habituation effect. […] Both stress and control animals were handled daily during the stress procedure; body weight for all mice was assessed at the beginning of the experiment, after the cessation of the stress period, and on the day of killing. […] All tests were analyzed using an automated videotracking system (Anymaze 4.20, Stoelting, Wood Dale, IL). […] Time spent immobile (floating) and time spent struggling was scored by an experienced observer, blind to treatment or condition of the animals.

CA1 neuronal activity = assay: Voltage-sensitive dye imaging (VSDI) of evoked CA1 neuronal activity in brain slices; set-up: species or system mice; conditions: bath application 10 µM
Description: Brain slices were obtained from 11-18 week-old male FKBP51+/+ and FKBP51-/- litter mates (Fig. 1) or from BL6 mice (Fig. 7). Preparation and staining of slices with the voltage-sensitive dye Di-4-ANEPPS as well as VSDI and data analysis were performed essentially as described (von Wolff et al. (2011) J. Psychiatr. Res. 45: 256-261; Refojo et al. (2011) Science 333: 1903-1907). Four acquisitions subsequently recorded at intervals of 5 s were averaged. Neuronal activity was evoked by square pulse electrical stimuli (200 µs pulse width) delivered via a custom-made monopolar tungsten electrode to the Schaffer collateral-commissural pathway. The circular ROI was placed into the CA1 stratum radiatum near the stimulation electrode. The ROI also covered a part of the adjacent CA1 stratum pyramidale (Fig. 1 B). The intensity of voltage stimulation was adjusted to produce FDSs with peak amplitudes of ~30% of the highest attainable value.
Irrespective of the question whether AD-induced increase of autophagic markers in all cases indicates enhanced protein turnover, autophagic pathways have been linked to synaptic function. […] Hippocampal CA3-CA1 synapses were electrically stimulated in brain slices from Fkbp51^+/+ and Fkbp51^-/- mice, and CA1 neuronal activity was monitored by means of voltagesensitive dye imaging (VSDI). […]

autophagy markers = assay: Autophagy markers in protein extracts of hippocampus and prefrontal cortex after acute antidepressant injection; format: in vivo; conditions: Fkbp51+/+ mice, 10 mgkg-1
Description: Western blot analysis was performed on eluates from ColPs or with protein extracts from cells or tissue. Protein extracts were obtained by lysing cells or tissue (prelysed as described in the paragraph before) in 62.5 mM Tris, 2% SDS and 10% sucrose, supplemented with protease (Sigma, P2714) and phosphatase (Roche, 04906837001) inhibitor cocktail. Samples were sonicated and heated at 95 °C for 5 min. Proteins were separated by SDS-PAGE and electro-transferred onto nitrocellulose membranes. Blots were placed in Tris-buffered saline, supplemented with 0.05% Tween (Sigma, P2287) and 5% non-fat milk for 1 h at room temperature and then incubated with primary antibody (diluted in TBS/0.05% Tween) overnight at 4 °C. […]
To evaluate molecular effects of ADs that may depend on FKBP51 and parallel the behavioral phenotype, autophagy markers were analyzed in protein extracts from the hippocampus and prefrontal cortex after PAR injection (10 mgkg^-1).

## Fc1ccc([C@@H]2CCNC[C@H]2COc2ccc3c(c2)OCO3)cc1 [PAR, paroxetine]
[1]; 51 KO mice
  social behavior (social interaction ratio), social avoidance test: but not in 51 KO mice
[1]; wild-type mice
  social behavior (social interaction ratio), social avoidance test: significantly enhanced social behavior
CA1 neuronal activity; slices from Fkbp51+/+ mice
  ROI-extracted fast, depolarization-mediated imaging signals (FDSs): enhanced
CA1 neuronal activity; slices from Fkbp51-/- animals
  ROI-extracted fast, depolarization-mediated imaging signals (FDSs): not observed
Autophagy markers
  ratio of LC3B-II/I: increased
